Counter-ions that a name gives are not always drawn.
What follows are compounds tested against T1, human NTCP (Homo sapiens, UniProt Q14973) (assay: Screening fluorescent competitive Myrcludex B-FITC binding assay (96-well, 10 µM drug)). Conditions: screening Myrcludex B-FITC binding, 10 µM drug.
T1 sequence (Q14973 1-349): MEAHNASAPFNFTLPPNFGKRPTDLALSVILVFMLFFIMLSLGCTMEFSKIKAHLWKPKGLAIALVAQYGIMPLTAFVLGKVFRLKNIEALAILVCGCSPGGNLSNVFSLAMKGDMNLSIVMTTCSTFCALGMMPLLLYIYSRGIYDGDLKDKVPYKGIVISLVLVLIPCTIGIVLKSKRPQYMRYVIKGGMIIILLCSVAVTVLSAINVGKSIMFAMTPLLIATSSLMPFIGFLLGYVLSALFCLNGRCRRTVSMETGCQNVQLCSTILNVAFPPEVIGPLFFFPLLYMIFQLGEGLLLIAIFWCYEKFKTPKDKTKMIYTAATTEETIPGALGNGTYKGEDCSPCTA
`OCCN1CCN(CCCN2c3ccccc3C=Cc3ccccc32)CC1` [Opipramol dihydrochloride] gave a B-score binding assay of 1.804.
Compound `CSc1ccc2c(c1)N(CCC1CCCCN1C)c1ccccc1S2` (stereo not drawn) [Thioridazine hydrochloride] has a B-score binding assay of -2.64.
For `C#C[C@]1(OC(C)=O)CC[C@H]2[C@@H]3CCC4=C[C@@H](OC(C)=O)CC[C@@H]4[C@H]3CC[C@@]21C` [Ethynodiol diacetate], the B-score binding assay was -0.591.
For `CC1(C)S[C@@H]2[C@H](NC(=O)[C@H](C(=O)O)c3ccsc3)C(=O)N2[C@H]1C(=O)O` [Ticarcillin sodium], the B-score binding assay was -3.119.
`O=C(COc1ccc(Cl)cc1)N1CCN(Cc2ccc3c(c2)OCO3)CC1` [Fipexide hydrochloride] was tested, and the B-score binding assay was -0.978.
With `Clc1ccc(COC(Cn2ccnc2)c2ccc(Cl)cc2Cl)c(Cl)c1` (stereo not drawn) [Miconazole] the B-score binding assay was 0.078.
Compound `COc1ccc(/C=C/C(=O)Nc2ccccc2C(=O)O)cc1OC` [Tranilast] has a B-score binding assay of -0.578.
`Oc1ccc(C2CNCCc3c2cc(O)c(O)c3Cl)cc1` (stereo not drawn) [Fenoldopam] gave a B-score binding assay of -2.435.
Work on `COc1c(N2CCNC(C)C2)c(F)cc2c(=O)c(C(=O)O)cn(C3CC3)c12` (stereo not drawn) [Gatifloxacin] yielded a B-score binding assay of 1.44.
Work on `COC1=C(OC)C(=O)C(CCCCCCCCCCO)=C(C)C1=O` [Idebenone] yielded a B-score binding assay of -0.743.
`CCc1cccc2c3c([nH]c12)C(CC)(CC(=O)O)OCC3` (stereo not drawn) [Etodolac] gave a B-score binding assay of -3.951.
`CS(=O)(=O)c1ccc([C@@H](O)[C@@H](CO)NC(=O)C(Cl)Cl)cc1` [Thiamphenicol] showed a B-score binding assay of -0.102.
For `C[N+](C)(C)CCOC(N)=O` [Carbachol], the B-score binding assay was -0.839.
`CCn1cc(C(=O)[O-])c(=O)c2ccc(C)nc21.[Na+]` [Nalidixic acid sodium salt] gave a B-score binding assay of -0.349.
`CC1=C(/C=C/C(C)=C/C=C/C(C)=C/C(=O)O)C(C)(C)CCC1` [Retinoic acid] showed a B-score binding assay of -2.311.
Work on `OC(CCN1CCCC1)(c1ccccc1)C1CCCCC1` (stereo not drawn) [Procyclidine hydrochloride] yielded a B-score binding assay of 0.82.
With `CC(C)(Oc1ccc(C2CC2(Cl)Cl)cc1)C(=O)O` (stereo not drawn) [Ciprofibrate] the B-score binding assay was -0.332.
For `CN1[C@@H]2CC[C@H]1C[C@@H](OC(c1ccccc1)c1ccccc1)C2` [Benztropine mesylate], the B-score binding assay was -0.297.
`COc1cc2nc(N(C)CCCNC(=O)C3CCCO3)nc(N)c2cc1OC` (stereo not drawn) [Alfuzosin hydrochloride] was tested, and the B-score binding assay was 0.046.
`CN1CCN(C(c2ccccc2)c2ccccc2)CC1.Cl` [Cyclizine hydrochloride] showed a B-score binding assay of 23.152.
`C#C[C@]1(O)CC[C@H]2[C@@H]3CCc4cc(O)ccc4[C@H]3CC[C@@]21C` [Ethinylestradiol] was tested, and the B-score binding assay was -0.714.
`CC(=O)N(O)CCCCCNC(=O)CCC(=O)N(O)CCCCCNC(=O)CCC(=O)N(O)CCCCCN` [Deferoxamine mesylate] was tested, and the B-score binding assay was -0.769.
For `CCCCCCC[N+](CC)(CC)CCCCc1ccc(Cl)cc1.Cc1ccc(S(=O)(=O)[O-])cc1` [Clofilium tosylate], the B-score binding assay was -1.116.
With `CC(C)(C)NCC(O)c1ccc(O)c(CO)c1` (stereo not drawn) [Salbutamol] the B-score binding assay was -2.567.
For `CC(=O)SCC(Cc1ccccc1)C(=O)NCC(=O)OCc1ccccc1` (stereo not drawn) [Racecadotril], the B-score binding assay was -0.55.
`CC(=O)OCC(=O)[C@@]1(O)CC[C@H]2[C@@H]3CCC4=CC(=O)C=C[C@]4(C)[C@@]3(F)[C@@H](O)C[C@@]21C` [Isoflupredone acetate] was tested, and the B-score binding assay was -1.144.
For `Nc1ccc(/N=N/c2ccccc2)c(N)n1` [Phenazopyridine hydrochloride], the B-score binding assay was -2.29.
With `NC(=O)N/N=C/c1ccc([N+](=O)[O-])o1` [Nitrofural] the B-score binding assay was -0.433.
In the case of `COc1ccc(CCN)cc1OC` [Homoveratrylamine], the B-score binding assay is reported as -0.867.
In the case of `CC(=O)N(CC(C)C(=O)O)c1c(I)cc(I)c(N)c1I` (stereo not drawn) [Iocetamic acid], the B-score binding assay is reported as -1.34.
`CC(COc1ccccc1)N(CCCl)Cc1ccccc1` (stereo not drawn) [Phenoxybenzamine hydrochloride] was tested, and the B-score binding assay was -2.19.
Work on `CCOC(=O)O[C@]1(C(=O)COC(=O)CC)CC[C@H]2[C@@H]3CCC4=CC(=O)C=C[C@]4(C)[C@H]3[C@@H](O)C[C@@]21C` [Prednicarbate] yielded a B-score binding assay of -2.046.
With `CN1C[C@H](CNC(=O)OCc2ccccc2)C[C@@H]2c3cccc4c3c(cn4C)C[C@H]21` [Metergoline] the B-score binding assay was -1.225.
Compound `CN1CCCN=C1/C=C/c1cccc(O)c1.O=C(O)c1cc2ccccc2c(Cc2c(O)c(C(=O)O)cc3ccccc23)c1O` [Oxantel pamoate] has a B-score binding assay of 0.435.
`CC=CC(=O)N(CC)c1ccccc1C` (mixture of isomers) [Crotamiton] showed a B-score binding assay of -2.125.
Compound `CC[N+](CC)(CC(=O)Nc1c(C)cccc1C)Cc1ccccc1` [Denatonium benzoate] has a B-score binding assay of -0.18.
`N#Cc1ccc(C(c2ccc(C#N)cc2)n2cncn2)cc1` [Letrozole] gave a B-score binding assay of -0.633.
With `CC(C)(C)C(=O)OCOC(=O)[C@@H]1N2C(=O)[C@@H](NC(=O)[C@H](N)c3ccccc3)[C@H]2SC1(C)C` [Pivampicillin] the B-score binding assay was -3.501.
In the case of `C=C1/C(=C\C=C2/CCC[C@]3(C)[C@@H]([C@H](C)/C=C/[C@@H](O)C4CC4)CC[C@@H]23)C[C@@H](O)C[C@@H]1O` [Calcipotriene], the B-score binding assay is reported as 0.49.
For `O=C(O)c1cc(-c2ccc(F)cc2F)ccc1O` [Diflunisal], the B-score binding assay was 0.017.
Work on `CC[N+](CC)(CC)CCOc1cccc(OCC[N+](CC)(CC)CC)c1OCC[N+](CC)(CC)CC` [Gallamine triethiodide] yielded a B-score binding assay of -0.932.
Work on `O=C1c2c(O)cccc2Cc2cccc(O)c21` [Anthralin] yielded a B-score binding assay of -8.884.
Work on `Cc1ccnc2c1NC(=O)c1cccnc1N2C1CC1` [Nevirapine] yielded a B-score binding assay of 2.426.
Compound `CC(C)[N+](C)(CCOC(=O)C1c2ccccc2Oc2ccccc21)C(C)C` [Propantheline bromide] has a B-score binding assay of -0.328.
`CC(CCc1ccccc1)NCC(O)c1ccc(O)c(C(N)=O)c1` (stereo not drawn) [Labetalol hydrochloride] was tested, and the B-score binding assay was -0.755.
`CCN(CC)CCOC(=O)C(c1ccccc1)C1CCCCC1` (stereo not drawn) [Drofenine hydrochloride] was tested, and the B-score binding assay was -0.059.
In the case of `COc1cc2nc(N3CCN(C(=O)C4CCCO4)CC3)nc(N)c2cc1OC` (stereo not drawn) [Terazosin hydrochloride], the B-score binding assay is reported as -0.273.
Work on `Nc1ccccc1S(N)(=O)=O` [2-Aminobenzenesulfonamide] yielded a B-score binding assay of 1.416.
Compound `NS(=O)(=O)c1cc2c(cc1Cl)NCNS2(=O)=O` [Hydrochlorothiazide] has a B-score binding assay of -0.565.
`CC(=O)[C@H]1CC[C@H]2[C@@H]3CCC4=CC(=O)CC[C@]4(C)[C@H]3CC[C@]12C` [Progesterone] gave a B-score binding assay of -0.466.
`CCCCCC[C@H]1C(=O)O[C@H](C)[C@H](NC(=O)c2cccc(NC=O)c2O)C(=O)O[C@@H](C)[C@@H]1OC(=O)CC(C)C` [Antimycin A] gave a B-score binding assay of -3.375.
With `c1ccc2c(c1)OCC(C1=NCCN1)O2` (stereo not drawn) [Idazoxan hydrochloride] the B-score binding assay was -0.108.

Same assay, conditions: screening Myrcludex B-FITC binding, 10 µM drug, Prestwick library
With `CCn1cc(C(=O)[O-])c(=O)c2ccc(C)nc21.[Na+]` [Nalidixic acid sodium salt] the “%NTCP binding” value was 79.2147%.
`CN1CCN(C(c2ccccc2)c2ccccc2)CC1.Cl` [Cyclizine hydrochloride] was tested, and the “%NTCP binding” value was 101.293%.
`NC(=O)OCC(O)COc1ccc(Cl)cc1` (stereo not drawn) [Chlorphensin carbamate] was tested, and the “%NTCP binding” value was 77.0968%.
`COc1ccc(CCN)cc1OC` [Homoveratrylamine] was tested, and the “%NTCP binding” value was 53.5961%.

Same assay, conditions: screening Myrcludex B-FITC binding, 10 µM drug; B-score
With `NC(=O)OCC(O)COc1ccc(Cl)cc1` (stereo not drawn) [Chlorphensin carbamate] the B-score binding assay was 1.766.
